Results from patent publication US8207193B2 (priority 2006, dated 2012).

Chains of the proteins cited; added tags and fusions are not shown.
UniProt P20309, whole entry: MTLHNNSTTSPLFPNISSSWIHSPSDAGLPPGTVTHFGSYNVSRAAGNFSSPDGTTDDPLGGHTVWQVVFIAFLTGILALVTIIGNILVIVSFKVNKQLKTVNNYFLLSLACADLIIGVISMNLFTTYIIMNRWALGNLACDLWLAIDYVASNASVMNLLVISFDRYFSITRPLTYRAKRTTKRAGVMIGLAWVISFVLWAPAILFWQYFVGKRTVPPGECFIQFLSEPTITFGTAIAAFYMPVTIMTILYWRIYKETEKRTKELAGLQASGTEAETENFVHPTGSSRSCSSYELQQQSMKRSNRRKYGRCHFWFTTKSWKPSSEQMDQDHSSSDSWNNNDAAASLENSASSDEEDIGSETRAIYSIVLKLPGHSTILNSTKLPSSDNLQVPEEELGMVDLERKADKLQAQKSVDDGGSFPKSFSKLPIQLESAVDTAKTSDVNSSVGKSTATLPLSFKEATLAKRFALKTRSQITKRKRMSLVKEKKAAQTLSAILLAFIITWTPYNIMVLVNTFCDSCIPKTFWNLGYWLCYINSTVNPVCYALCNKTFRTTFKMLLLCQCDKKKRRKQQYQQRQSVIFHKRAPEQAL

Biological target: human muscarinic acetylcholine M3 receptor (M3-ACh) (Homo sapiens, UniProt P20309)

O=C(O[C@H]1CN2CCC1CC2)C1(c2ccccc2)CCCCCC1 [listing 1 of 2 here]
IC50 (read-out: M3 binding IC50, class symbols, Table 2): < 2 nM

O=C(O[C@H]1CN2CCC1CC2)C1(c2ccccc2)CCCCC1
pIC50 of comparative compounds containing a cyclohexyl (C6) ring in place of cycloheptyl (C7) (M3, Table 3, C6): 8.9 (Comp Ex. 4)

O=C(O[C@H]1CN2CCC1CC2)C1(c2ccccc2)CCCC1
pIC50 of comparative compounds containing a cyclopentyl (C5) ring in place of cycloheptyl (C7) (M3, Table 3, C5): 8.7 (Comp Ex. 1)

O=C(O[C@H]1CN2CCC1CC2)C1(c2ccccc2)CCCCCC1 [listing 2 of 2 here]
pIC50 of cycloheptyl (C7) compound (M3, Table 3, C7): 10.2 (Ex. 1)
pIC50 ([3H]NMS 0.2 nM, CHO-K1 membranes, Table 1): 10.2
